This data set deals with T1, thrombin/antithrombin III interaction (Homo sapiens, UniProt P01008).
T1 construct: purchased Diapharma; West Chester, OH (Chromogenix Coatest assay); host or cells: human plasma (thrombin activity)
The data set is described as follows: Chromogenix Coatest anticoagulant assay. To be noted: chromogenic thrombin substrate, absorbance 415 nm, compared to international heparin standard. Format: biochemical. An excerpt:
A chromogenic assay (based on the thrombin/antithrombin III interaction and bioactivity) that is used diagnostically to assess heparin levels in human blood was used to compare the international heparin standard (black diamonds) to sTestan (black triangle) and Roneparstat (gray circles). The arrow marks the value of the uninhibited control with maximum coagulation in this assay. […] These findings indicate that sTestan is unlikely to cause bleeding side effects.
The Chromogenix Coatest assay (Diapharma; West Chester, OH) was used to measure the effect on thrombin (the clotting factor that converts fibrinogen into fibrin glue) inactivation by antithrombin III. Typically, heparin (here the international heparin standard) is required to effectively reduce the thrombin activity (from human plasma), as measured by absorbance (at 415 nm) of a chromogenic thrombin substrate.

Amino acid sequences for entries named in this document (tags omitted). Residues count along the entry.
UniProt P01008, 33-464: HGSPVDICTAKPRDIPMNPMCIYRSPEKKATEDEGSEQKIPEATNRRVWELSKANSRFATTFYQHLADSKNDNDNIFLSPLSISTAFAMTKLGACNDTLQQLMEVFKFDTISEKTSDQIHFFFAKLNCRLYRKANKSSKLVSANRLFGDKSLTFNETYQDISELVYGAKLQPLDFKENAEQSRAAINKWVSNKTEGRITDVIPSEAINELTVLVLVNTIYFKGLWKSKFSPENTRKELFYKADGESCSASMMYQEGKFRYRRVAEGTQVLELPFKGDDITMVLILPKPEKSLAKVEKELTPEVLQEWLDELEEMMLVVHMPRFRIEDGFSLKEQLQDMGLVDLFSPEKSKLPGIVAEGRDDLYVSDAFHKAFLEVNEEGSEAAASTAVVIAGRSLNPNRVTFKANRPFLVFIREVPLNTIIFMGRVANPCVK

Entries after “also recorded” stand apart in the source; their conditions may differ.

For the substance “sulfated or sulfonated testosteronan [sTestan]”, the anticoagulant activity entry is “no anticoagulant activity even at 20,000-fold higher concentrations than heparin; also recorded: less anticoagulant activity than Roneparstat; also recorded: not be an anticoagulant”.
